Measurements published in patent US6569631B1, “Microplate thermal shift assay for ligand development using 5-(4″dimethylaminophenyl)-2-(4′-phenyl)oxazole derivative fluorescent dyes” (3-Dimensional Pharmaceuticals, Inc., priority 1998, dated 2003).

Amino acid sequences for entries named in this document (tags omitted).
UniProt P05230, whole entry, species assumed: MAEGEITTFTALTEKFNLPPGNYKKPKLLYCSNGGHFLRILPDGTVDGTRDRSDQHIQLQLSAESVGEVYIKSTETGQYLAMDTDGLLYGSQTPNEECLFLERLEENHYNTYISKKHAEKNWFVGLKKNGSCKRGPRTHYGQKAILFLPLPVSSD

Biological target: T1, acidic fibroblast growth factor (aFGF) (Homo sapiens, UniProt P05230)
T1 construct: host or cells: E. coli
Experiment: Microplate thermal shift assay for ligands binding to aFGF, turbidity signal
Conditions: relative to aFGF alone (317.15 °K)
Excerpt: The second therapeutic receptor tested in the microplate thermal shift assay was acidic fibroblast growth factor (aFGF), a growth factor that plays a key role in angiogenesis (Folkman, J. et al., J. Biol. Chem. 267:1.0931-10934 (1992)). A synthetic gene for this protein was purchased from R&D Systems (Minneapolis, Minn.), and was cloned and expressed in E. coli using methods similar to those described for basic fibroblast growth factor (bFGF) (Thompson, L. D. et al., Biochemistry 33:3831-3840 (1994); Pantoliano, M. W. et al., Biochemistry 33:10229-10248 (1994); Springer, B. A. et al., J. Biol. Chem. 269:26879-26884 (1994)). Recombinant aFGF was then purified by heparin-sepharose affinity chromatography as described (Thompson, L. D. et al., Biochemistry 33:3831-3840 (1994)). aFGF is also known to bind heparin/heparan, which is a cofactor for mitogenic activity. […] A microplate thermal assay of these compounds was set up in a way similar to that described above for human α-thrombin. […] The affinity constants covered a fairly broad range of binding affinities, with pentosan PSO4 showing the highest affinity.

N[C@@H](CCC(=O)O)C(=O)N[C@@H](CCC(=O)O)C(=O)N[C@@H](CCC(=O)O)C(=O)N[C@@H](CCC(=O)O)C(=O)N[C@@H](CCC(=O)O)C(=O)O [EEEEE]
ΔTm: 0.0 °K
